The record followed here is the supplement of paper PMC6411743.

Amino acid sequences for entries named in this document (tags omitted).
UniProt P59768, whole entry: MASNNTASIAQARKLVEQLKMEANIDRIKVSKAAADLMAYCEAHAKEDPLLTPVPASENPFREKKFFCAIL

± gives the standard deviation of the averaged measurements. Only a part is listed here, and it is no random draw.

The test has as its target G3V2N0 and related entries (UniProt P59768). Nature of the test: NP40-soluble protein abundance relative to vehicle (solubility fold change) (ratio); higher = more soluble protein in presence of AMP-PNP. As for the experimental part:
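Solubility proteome profiling in Jurkat crude lysate. Lysate was treated with Mg-AMP-PNP, a non-hydrolysable ATP analog (0.1-10 mM), for 10 min at room temperature and 3 min at 37 °C, then solubilised with 0.8% NP40 and benzonase, followed by ultracentrifugation. Proteins were quantified by TMT10 LC-MS/MS; the value is the NP40-soluble abundance relative to the NP40-processed vehicle, from 3 independent experiments.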

For the compound `Nc1ncnc2c1ncn2[C@@H]1O[C@H](COP(=O)(O)OP(=O)(O)NP(=O)(O)O)[C@@H](O)[C@H]1O` [adenylyl imidodiphosphate], the NP40-soluble protein abundance by setting is: (concentration: 1mM) 0.878 ± 0.05; (concentration: 2mM) 0.916 ± 0.025; (concentration: 4mM) 0.841 ± 0.074; (concentration: 6mM) 0.846 ± 0.067; (concentration: 8mM) 0.84 ± 0.073; (concentration: 10mM) 0.808 ± 0.12.
